Publication PMC10253817, “Design, Pharmacological Characterization, and Molecular Docking of Minimalist Peptidomimetic Antagonists of α4β1 Integrin” (International Journal of Molecular Sciences, 2023)

The chains behind the UniProt entries cited, without tags or fusion partners. Residues count along the entry.
UniProt P13612, 34-1032, chain 1 of 2: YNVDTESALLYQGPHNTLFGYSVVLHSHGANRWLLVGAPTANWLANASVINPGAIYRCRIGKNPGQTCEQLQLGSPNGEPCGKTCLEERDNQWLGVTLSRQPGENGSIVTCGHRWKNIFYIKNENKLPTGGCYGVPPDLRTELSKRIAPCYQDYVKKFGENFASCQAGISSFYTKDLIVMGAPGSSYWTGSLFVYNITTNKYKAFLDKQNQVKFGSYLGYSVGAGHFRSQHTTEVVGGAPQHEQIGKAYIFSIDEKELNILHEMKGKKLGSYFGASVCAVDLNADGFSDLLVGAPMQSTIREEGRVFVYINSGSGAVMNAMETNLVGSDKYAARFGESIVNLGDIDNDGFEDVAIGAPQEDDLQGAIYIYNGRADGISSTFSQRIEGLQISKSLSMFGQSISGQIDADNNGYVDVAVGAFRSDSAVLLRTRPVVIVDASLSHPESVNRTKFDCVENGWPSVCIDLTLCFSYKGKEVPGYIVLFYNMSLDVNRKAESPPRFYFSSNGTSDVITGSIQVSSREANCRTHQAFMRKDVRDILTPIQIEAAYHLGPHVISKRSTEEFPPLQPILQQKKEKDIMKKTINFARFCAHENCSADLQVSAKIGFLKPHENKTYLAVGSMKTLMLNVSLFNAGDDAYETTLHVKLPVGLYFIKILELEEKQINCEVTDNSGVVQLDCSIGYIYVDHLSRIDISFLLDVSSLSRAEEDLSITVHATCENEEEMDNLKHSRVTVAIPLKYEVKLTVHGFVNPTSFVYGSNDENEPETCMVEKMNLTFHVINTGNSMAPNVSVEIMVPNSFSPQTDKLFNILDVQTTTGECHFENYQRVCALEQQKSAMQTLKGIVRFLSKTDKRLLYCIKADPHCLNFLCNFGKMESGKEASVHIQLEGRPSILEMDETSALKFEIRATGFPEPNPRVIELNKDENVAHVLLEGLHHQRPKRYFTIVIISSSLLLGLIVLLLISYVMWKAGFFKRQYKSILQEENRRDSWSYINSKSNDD

Target: α4β1 integrin (human (endogenous in Jurkat E6.1)) (UniProt P13612)
Experiment: competitive binding of a fluorescent ligand on intact cells (plate reader); intact Jurkat E6.1 cells (50,000 cells/sample) in 0.1% BSA in HEPES buffer (NaCl 110 mM; KCl 10 mM; glucose 10 mM; MgCl2 1 mM; CaCl2 1.5 mM; HEPES 30 mM; pH 7.4); pre-incubated with competitor 10^-11-10^-5 M for 20-30 min at RT, then LDV-FITC (5 uM) for 30 min at RT; one-site competition fit, Ki from IC50 by the Cheng-Prusoff equation

Ki: 6.9 nM
Substance: BIO1211 (peptide)
